From US8691764B2, “Inhibitors of NF-κB activity” (The Research Foundation for the State University of New York, priority 2007, dated 2014) come the findings set out here.

Chains of the proteins cited; added tags and fusions are not shown. Residues count along the entry.
UniProt P19838, 1-433 limits assumed: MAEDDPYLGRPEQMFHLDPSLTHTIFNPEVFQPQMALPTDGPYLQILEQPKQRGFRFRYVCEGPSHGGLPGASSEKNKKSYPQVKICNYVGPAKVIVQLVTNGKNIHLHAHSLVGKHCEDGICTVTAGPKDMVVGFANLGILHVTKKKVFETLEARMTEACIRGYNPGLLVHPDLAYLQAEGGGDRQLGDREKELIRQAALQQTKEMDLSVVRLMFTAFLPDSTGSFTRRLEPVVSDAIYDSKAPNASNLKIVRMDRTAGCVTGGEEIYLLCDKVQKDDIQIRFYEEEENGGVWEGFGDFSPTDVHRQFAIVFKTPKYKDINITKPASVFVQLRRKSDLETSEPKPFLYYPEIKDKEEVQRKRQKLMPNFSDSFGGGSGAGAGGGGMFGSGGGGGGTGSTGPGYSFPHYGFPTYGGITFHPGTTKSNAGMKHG
UniProt Q04206, whole entry: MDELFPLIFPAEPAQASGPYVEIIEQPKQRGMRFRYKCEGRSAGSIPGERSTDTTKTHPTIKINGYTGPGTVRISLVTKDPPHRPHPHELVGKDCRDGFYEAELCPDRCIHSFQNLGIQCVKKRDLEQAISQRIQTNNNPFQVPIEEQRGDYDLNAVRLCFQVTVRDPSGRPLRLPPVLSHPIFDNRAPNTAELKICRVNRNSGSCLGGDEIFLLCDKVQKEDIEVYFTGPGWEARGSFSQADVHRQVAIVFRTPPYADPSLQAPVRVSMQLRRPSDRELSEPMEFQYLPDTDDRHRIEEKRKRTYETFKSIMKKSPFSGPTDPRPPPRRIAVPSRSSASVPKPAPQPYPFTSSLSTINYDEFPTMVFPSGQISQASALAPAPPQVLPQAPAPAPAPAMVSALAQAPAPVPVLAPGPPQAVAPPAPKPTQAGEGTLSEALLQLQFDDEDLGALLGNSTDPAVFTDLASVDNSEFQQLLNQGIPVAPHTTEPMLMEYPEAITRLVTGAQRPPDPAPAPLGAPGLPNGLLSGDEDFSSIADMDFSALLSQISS

This experiment concerns the target NF-κB (Homo sapiens, UniProt P19838+Q04206). The experiment in a line: NF-κB activity ELISA (TransBinding NF-κB assay kit), BxPC-3 cells. It counts as cell-based. Also on record: endogenous in cells; host or cells: BxPC-3. The method, then: NF-κB activity was measured in these cells using the TransBinding NF-κB assay kit and following the instructions of the manufacturer (Panomics). Briefly, nuclear extracts obtained as described above, were incubated for 30 min in an ELISA plate coated with NF-κB consensus DNA sequence to which p50 protein can bind. After binding, antibody against p50 was added and incubated for 1 hour, followed by HRP-conjugated antibody for 1 hour. Afterwards, luminol/enhancer solution and stable peroxide solution were added and chemoluminescence was detected using a luminometer (Bio-Rad).
On the technique in general: ELISA stands for enzyme-linked immunosorbent assay.

In the case of nitric oxide-donating aspirin [NO-ASA], the NF-κB activity entry (3 h, ELISA) was “inhibited NF-κB activity in a concentration-dependent manner”. In addition, the “suppression of NF-κB activity” value (NO-ASA 20 μM) amounted to 40%. Besides, the “reduction of NF-κB activity after annexin 1 knock-down” value (NO-ASA 20 μM, annexin 1-specific siRNA) was 10%.
